{"source": "patent US7858597B2", "about": "“Preparation of formulations of angiotensin II AT1 receptors antagonists for the treatment of arterial hypertension, other cardiovascular illnesses and its complications” (Universidade Federal De Mimas Gerais - UFMG, priority 2001, dated 2010)", "origin": "cited, not measured here", "details": "Captopril associated to polymer (PVP) in tablets; increased from 4; cited from earlier work", "data": [{"smiles": "C[C@H](CS)C(=O)N1CCC[C@H]1C(=O)O", "note": "[Captopril]", "values": [{"measurement": "drug permanence", "value": 16, "unit": "h"}]}]}
